Literature values, collected in patent US20090119801A1, “Method for preserving cut flowers, cut flower preservation kit, method for manufacturing processed cut flowers, and processed cut flowers” (SUNTORY FLOWERS LIMITED, priority 2007, published 2009).

Settings: logP; cited from earlier work

Substance: 2-butanol
- partition coefficient: 0.691
